# scFv variants of Ab-14 (light chain) against a SARS-CoV-2 spike peptide

Antigen: PDVDLGDISGINAS, a 14-residue peptide of the SARS-CoV-2 spike HR2 region.

The variants keep the heavy chain, the linker and the frameworks of Ab-14 (scFv order VH, the linker GGGGSGGGGSGGGGS, VL).
VH: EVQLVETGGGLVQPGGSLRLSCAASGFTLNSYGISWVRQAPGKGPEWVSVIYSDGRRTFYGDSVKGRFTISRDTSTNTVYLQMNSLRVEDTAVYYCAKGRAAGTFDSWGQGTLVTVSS
VL: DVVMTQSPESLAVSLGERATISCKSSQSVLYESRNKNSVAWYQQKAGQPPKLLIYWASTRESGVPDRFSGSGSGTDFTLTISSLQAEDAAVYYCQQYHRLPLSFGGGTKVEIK

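AAYL50 was designed without a model: most single CDR substitutions and a random sample of double and triple ones. The scFvs were displayed on barcoded MATa yeast, the peptide on MATalpha yeast. Mating (16 h, 30 °C) was followed by selection of diploids and sequencing of their barcodes. The ratio of observed to expected reads was calibrated, replicate by replicate, on BCL2-family standards whose Kd was known from biolayer interferometry. Mating was done three times.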

The parent's light chain CDRs are KSSQSVLYESRNKNSVA, WASTRES, QQYHRLPLS; each variant's own CDRs replace them letter for letter. Every variant below is changed at Q96 of the VL (sequential numbering). Each Kd is an estimate from the mating assay, the geometric mean of the replicates in which the pair was seen; lower is stronger. Where no diploid with the target was found in any replicate, the entry reads "not detected": below detection, most likely a poor binder, though not proof of it. Empty control strains, which show no peptide, gave a signal in 18% of pairings with library AAYL50; the median was 15 µM and 95% of these signals were weaker than 970 nM. No background was subtracted. Also given: how often the same scFv was detected with the empty control strains.

CDR-L1,CDR-L2,CDR-L3,Kd,seen in,control signals
DSSQQVLYESRNKNSVA,WASTRES,QRYHRLPLS,1.5 µM,2/3,0/9
KSSQSVLYESRNKNSVA,TTSTRES,QCYHRLPLS,1.2 µM,1/3,1/9
KSSQSVLYESRNKNYVA,WASTRES,QMYHRLPLI,440 nM,3/3,3/9
KSWQSVLYEDRNKNSVA,WASTRES,QSYHRLPLS,1.7 µM,3/3,2/9
KSSQSVEYESRNKNSVA,DASTRES,QLYHRLPLS,410 pM,3/3,1/9
LSSQSLLYESRNKNSVA,WASTRES,QKYHRLPLS,not detected,0/3,0/9
KSSQSVLYESRNKNSVA,CANTRES,QGYHRLPLS,1.5 µM,3/3,2/9
KSSQSVLYESLNKNSVA,WVSTRES,QRYHRLPLS,3.1 µM,3/3,2/9
KSSQSVLYESQNKNSVA,WMSTRES,QRYHRLPLS,not detected,0/3,1/9
KSSQSVLYESRNANSVA,WASLRES,QRYHRLPLS,24 µM,1/3,2/9
KSSQVVLYESRNKNSVA,WASTRES,QYIHRLPLS,800 nM,1/3,0/9
KSSQSVPYESCNKNSVA,WASTRES,QEYHRLPLS,77 nM,3/3,4/9
KSSQSVLYERPNKNSVA,WASTRES,QPYHRLPLS,270 nM,3/3,0/9
KSSQSVLYESWNKNSVA,WASVRES,QLYHRLPLS,54 nM,3/3,0/9
KSSQSVLAESRNKHSVA,WASTRES,QWYHRLPLS,7.2 µM,2/3,2/9
KSSQSVLVESRNFNSVA,WASTRES,QRYHRLPLS,55 nM,3/3,3/9
KSSQSCLYESRNKNSVA,WASDRES,QTYHRLPLS,17 µM,1/3,1/9
KSSQSVLYESRNKYSVA,WARTRES,QTYHRLPLS,2.1 µM,3/3,1/9
KSSQSVLYENRNKNSVA,WASTRES,QLYHRLVLS,not detected,0/3,0/9
KRGQSVLYESRNKNSVA,WASTRES,QSYHRLPLS,980 nM,3/3,0/9
KSSQSVLYESRNKNSVA,WTSTRES,QKYHRLPLS,160 µM,2/3,2/9
KSSQSVLYESRNKNSVA,WASTREF,QAYHRLPQS,20 nM,3/3,1/9
KSSQSVLYESRNKNSVA,WASTRES,QHTHRLPLS,30 nM,3/3,6/9
KSSQSVLVESRNKNSVA,WASTRES,QMYHRLPLY,1.2 µM,3/3,4/9
KSSGSVLDESRNKNSVA,WASTRES,QIYHRLPLS,8.1 nM,3/3,2/9
KSSQSVLKESRNMNSVA,WASTRES,QMYHRLPLS,7.8 nM,3/3,4/9
KQSQSVLYESRNKNSVA,WTSTRES,QFYHRLPLS,140 nM,1/3,0/9
KSSQSVLYESRNKNSVA,WANTRES,QRYHELPLS,3.4 nM,3/3,0/9
KSTQSVLYESINKNSVA,WASTRES,QCYHRLPLS,370 nM,3/3,2/9
KSSQSVLYQSCNKNSVA,WASTRES,QAYHRLPLS,38 µM,2/3,5/9
KSSQSVLYESRFWNSVA,WASTRES,QDYHRLPLS,6.9 µM,1/3,0/9
KSSQSVLYESRNKNSVA,WTSTREV,QTYHRLPLS,13 nM,3/3,5/9
KSSQEVLYESRNKNLVA,WASTRES,QGYHRLPLS,2.1 µM,1/3,2/9
KSSQIWLYESRNKNSVA,WASTRES,QFYHRLPLS,4.8 µM,3/3,4/9
KSSQSVLYESRNKNSVA,WASTWES,QDYHRLPLS,2.9 µM,2/3,3/9
KSSQSVLYESRNKNSVA,WASTRES,QIWHRGPLS,not detected,0/3,0/9
KSSQSVLYHSRNKNSVA,WASTRED,QEYHRLPLS,8.1 nM,3/3,3/9
KSSQSVLYESRNKNSNA,WASTRES,QPYHRLPLH,not detected,0/3,1/9
KSSQSVLYESRNKNDVA,WASTREN,QFYHRLPLS,970 nM,1/3,3/9
KSSQSILYESRNKNSVA,WASTRES,QSYMRLPLS,150 nM,3/3,0/9
KSSQSVLYESRNKNSVA,WASTRAS,QHYHRLPLH,50 nM,3/3,6/9
KSSQSILYESRNKNSVA,WASTRES,LLYHRLPLS,1.7 µM,1/3,1/9
KSSQSVLQESRNKNSVA,WASTRES,QKYYRLPLS,not detected,0/3,0/9
KSSQSVLYCSRNKNSVA,WASTRES,QKYHRLPCS,650 µM,1/3,1/9
KSSQSVLYESRNKNSVA,WAVTRES,QVHHRLPLS,120 µM,1/3,1/9
KSSQSVLYESRNKNSVA,WASTRES,CMYHRLPLS,21 µM,1/3,3/9

From the AlphaSeq antibody data of Engelhart et al. 2022 (doi:10.1038/s41597-022-01779-4), copy in the FLAb collection.